Where two headings read alike, the source gives them in different places.
What was measured:
[1] = after 180 min, target 20 μg/mL
From the text: The intradermal drug delivery kinetics were further evaluated by developing an in vitro model mimicking the structure of wounds in which eschar and granulation tissue separates the endothelial cells from the outside environment. This model, illustrated schematically in FIG. 2a, consisted of a cell culture insert with a porous membrane covered by agarose (3% w/v) with ˜2 mm thickness, and the bottom well represented the environment of endothelial cells.
Assessment of release kinetics: To mimic the chronic wound tissue, 12-well cell culture inserts were filled with 150 μL of 3% (w/v) agarose. […] Inserts were divided into 3 groups (4 replicate/group) with respect to the method of delivery, including topical, MNA, and LJI. To measure the concentration of the delivered solution, at each time point 100 μL was removed and then replaced with the same volume of fresh PBS. After collecting all samples, the concentration was measured by a plate reader (Cytation 5, BioTek) followed by data analysis to extract the related release graphs. In the case of BSA, measurement process was followed based on manufacturer's protocol.

[2] = From the text: Agarose and other agar-based hydrogels have been widely used as skin models in previous studies^37,38. […] The intensity is also plotted quantitatively against the depth of penetration (FIG. 15C).

delivered into the bottom chamber (overall efficiency of delivery) ([1]; LJI): 75% | delivered into the bottom chamber (overall efficiency of delivery) ([1]; MNAs): ~60% | delivered into the bottom chamber (overall efficiency of delivery) ([1]; topical (TOP)): less than 15% | distribution profile in the skin model ([2]; LJI): deepest penetration of the dye
Structure (SMILES): CCN(CC)c1ccc2c(-c3ccccc3C(=O)O)c3ccc(=[N+](CC)CC)cc-3oc2c1.[Cl-] [rhodamine B]
distribution profile in the skin model ([2]; MNAs, compared to topical administration): delivered the solution deeper into the skin model while showing a relatively uniform distribution area

Reference: patent US20220273926A1, “DRUG DELIVERY USING MICRONEEDLE ARRAYS” (BOARD OF REGENTS OF THE UNIVERSITY OF NEBRASKA, priority 2019, published 2022)
